Source: patent US9638690B2, “Compounds and compositions for use as alkylating agent sensors and methods of use thereof” (dated 2017)

Experiment: Assay of cyclophosphamide with NBP and its derivatives (colorimetric, UV/Vis)
Conditions: dye formed with cyclophosphamide; for ε, molar absorptivity of the dye resulting from reaction with CP: NaOAc buffer pH 4.5, 100° C. twenty minutes, then 1:1 triethylamine:acetone, blank subtracted; for λanal, analytical wavelength: wavelength of highest intensity in the 400-700 nm range after background corrections

SMILES	ε, molar absorptivity of the dye resulting from reaction with CP [L M^−1cm^−1]	λanal, analytical wavelength [nm]
O=C([O-])c1cc([N+](=O)[O-])ccc1Cc1ccncc1.[K+]	2E6	603
O=[N+]([O-])c1ccc(Cc2ccncc2)c(CO)c1	0.46E6	570
O=[N+]([O-])c1ccc(Cc2ccncc2)c(/C=N/Cc2ccccc2)c1	0.77E6	581
O=[N+]([O-])c1ccc(Cc2ccncc2)cc1	0.55E6	575
O=Cc1cc([N+](=O)[O-])ccc1Cc1ccncc1	0.89E6	587
